Measured values as given in EP0415126B1, “Anti-dental plaque agents” (MITSUI NORIN CO., LTD., priority 1989, dated 1991).

Tested on: glucosyltransferase
Assay: Inhibition of water-insoluble glucan formation by crude glucosyltransferase (14C-sucrose, scintillation counting)
Type: biochemical, Streptococcus mutans OMZ 176
Details: Water-insoluble glucan formation vs control, 60 minutes at 37°C, pH 6.8
Description: Crude glucosyltransferase was refined from Streptococcus mutans OMZ 176 according to the method described by Mukasa and Slads in Infect. Immun., 8, 555 (1973) and 9, 419 (1974).
The above GTF, labeled sucrose and the tea polyphenol compounds were mixed together to the following final concentrations, and was regulated with a 50 mM phosphate buffer (with pH 6.8). GTF: 0.34 mg protein/ml 0.1 mM (¹⁴C) sucrose: 0.1 »Ci/»l Present agent: 1 to 10 mg/ml or 1 to 10 mM.
Twenty (20) »l of the mixture solution were subjected to a reaction for 60 minutes at 37°C. After the completion of the reaction, 5 »l of the reaction mixture and 5 »l of supernatant obtained by centrifugation of the reaction mixture at 5,500 x g for 3 minutes were applied to a filter paper respectively, and then developed with a developing solution of butanol-pyridine-water (6:4:3), followed by counting with a scintillation counter. The amount of water-insoluble glucan was found by a difference between the measurements of the reaction mixture and the supernatant. The GTF inhibiting ability is expressed in terms of the rate of inhibiting the formation of water-insoluble glucan with respect to a control to which the tea polyphenol compounds were not added.

Substance	Inhibition (%) (sample concentration 1.0 mM)	Inhibition (%) (sample concentration 10.0 mM)
(-)-Epigallocatechin	13%	25%
(-)-Epigallocatechin gallate	42%	75%
